Reference: patent US20240190864A1 (YA THERAPEUTICS INC, priority 2021, published 2024)

By UniProt entry, the sequences of proteins in these tests, tags left out. Where a name states a change or a piece, a line headed by the entry shows the natural chain unless it says otherwise.
UniProt Q06187: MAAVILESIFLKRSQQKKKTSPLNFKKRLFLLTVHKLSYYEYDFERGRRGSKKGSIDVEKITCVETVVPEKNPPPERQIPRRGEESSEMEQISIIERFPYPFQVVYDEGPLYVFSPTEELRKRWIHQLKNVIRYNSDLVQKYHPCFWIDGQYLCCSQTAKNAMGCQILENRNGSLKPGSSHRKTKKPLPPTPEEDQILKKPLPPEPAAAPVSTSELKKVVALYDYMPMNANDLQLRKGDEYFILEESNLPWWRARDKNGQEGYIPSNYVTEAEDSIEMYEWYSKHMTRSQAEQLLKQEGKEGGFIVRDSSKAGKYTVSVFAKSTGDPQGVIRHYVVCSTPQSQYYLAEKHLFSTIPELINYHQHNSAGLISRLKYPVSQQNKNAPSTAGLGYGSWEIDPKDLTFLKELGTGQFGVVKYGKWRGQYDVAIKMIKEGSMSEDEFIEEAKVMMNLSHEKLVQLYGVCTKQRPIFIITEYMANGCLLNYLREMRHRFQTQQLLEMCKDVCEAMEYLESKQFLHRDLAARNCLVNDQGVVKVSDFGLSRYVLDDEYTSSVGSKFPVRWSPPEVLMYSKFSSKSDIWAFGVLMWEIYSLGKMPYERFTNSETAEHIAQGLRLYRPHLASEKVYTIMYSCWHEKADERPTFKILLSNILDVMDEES

Target: BTK (Homo sapiens, UniProt Q06187)
Assay: BTK Kinase Test
Type: biochemical
Settings: BTK kinase inhibitory activity; enzyme with compound 30 min, ATP 50 μM, ULight poly GT substrate
Method: Dilute 350 ng/uL BTK mother solution with kinase buffer solution (50 mM HEPES, 10 mM MgCl2, 2 mM DTT, 1 mM EGTA, 0.01% Tween 20), and add 6 μL 1.67×0.134 ng/μL working solution (final concentration 0.08 ng/μL), using the nanoliter sampler, add different compounds dissolved by DMSO into the pores, so that the final concentration of the compound is 1000 nM-0.244 nM, and the final concentration of the positive drug is 50 nM-0.0122 nM. Four times the gradient, a total of seven concentrations are available. At the same time, set up blank control pores (without enzyme) and negative control pores (with enzyme, with solvent DMSO), and set up two double pores. After the enzyme reacts with compound or solvent for 30 min, 5×250 μM ATP (final concentration is 50 μM) and 5×0.5 μM Substrate (final concentration 0.1 μμM. ULight poly GT), mix at 1:1, 4 per hole μL is added into the hole; after sealing, add […] to each hole after reacting at room temperature for 2 hours μL 4×8 nM detection reagent (final concentration is 2 nM, Ab), incubate at room temperature for 1 hour; PE instrument reading board (excitation […], emission 665 nm). Calculate the inhibition rate and calculate the IC50 value.

For “(S)-4-(1-acryloylpiperidin-3-yl)-2-oxo-6-(4-phenoxyphenyl)-2,3-dihydro-1H-imidazo[4,5-c]pyridine-8-carboxamide [Compound 21]”, the IC50 was ≤ 10 nM.
